# Reference: ChEMBL document CHEMBL5500350, “Advances in TRPV6 inhibitors for tumors by targeted therapies: Macromolecular proteins, synthetic small molecule compounds, and natural compounds” (Eur J Med Chem, 2024)
# Target: T1, Transient receptor potential cation channel subfamily V member 6 (Homo sapiens, UniProt Q9H1D0)
# T1 sequence (Q9H1D0 whole entry): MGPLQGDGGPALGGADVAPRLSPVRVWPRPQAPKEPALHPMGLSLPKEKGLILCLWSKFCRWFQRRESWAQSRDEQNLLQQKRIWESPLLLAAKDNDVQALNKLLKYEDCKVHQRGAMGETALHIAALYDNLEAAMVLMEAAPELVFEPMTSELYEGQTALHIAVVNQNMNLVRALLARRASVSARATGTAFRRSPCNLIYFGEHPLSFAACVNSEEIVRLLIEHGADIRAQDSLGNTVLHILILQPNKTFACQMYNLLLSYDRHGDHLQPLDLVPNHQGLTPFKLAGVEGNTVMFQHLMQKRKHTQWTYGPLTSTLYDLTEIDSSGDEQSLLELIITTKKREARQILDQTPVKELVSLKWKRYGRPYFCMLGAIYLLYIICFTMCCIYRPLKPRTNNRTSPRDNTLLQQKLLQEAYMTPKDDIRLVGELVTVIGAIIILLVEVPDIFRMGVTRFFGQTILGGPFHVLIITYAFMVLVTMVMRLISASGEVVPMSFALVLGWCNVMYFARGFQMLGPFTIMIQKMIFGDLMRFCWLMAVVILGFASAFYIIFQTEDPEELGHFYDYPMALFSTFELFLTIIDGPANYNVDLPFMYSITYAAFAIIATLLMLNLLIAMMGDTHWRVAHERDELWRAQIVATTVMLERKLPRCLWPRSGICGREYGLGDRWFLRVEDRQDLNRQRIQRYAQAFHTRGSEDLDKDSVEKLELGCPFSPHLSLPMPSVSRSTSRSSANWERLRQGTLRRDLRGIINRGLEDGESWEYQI
smiles,measurement,value
c1ccc([C@H]2CC[C@H](N3CCN(Cc4cccnc4)CC3)CC2)cc1,IC50,11.2 µM
